Literature values as cited in patent US6927272B2, “Electronic component-use material and electronic component using it” (Matsushita Electric Industrial Co., Ltd., priority 2001, dated 2005).

Conditions: room temperature (20-30° C.)

kadethrin
Vapor Pressure: 100,000 nPa
